Measurements reported in ChEMBL document CHEMBL1131645, “Synthesis and activity studies of N-[omega-N'-(adamant-1'-yl)aminoalkyl]- 2-(4'-dimethylaminophenyl)acetamides: in the search of selective inhibitors for the different molecular forms of acetylcholinesterase” (Bioorg Med Chem Lett, 1998).

Tests used:
[1] = molecular target: T1, Acetylcholinesterase (Bos taurus, UniProt P23795)
T1 sequence (P23795 whole entry): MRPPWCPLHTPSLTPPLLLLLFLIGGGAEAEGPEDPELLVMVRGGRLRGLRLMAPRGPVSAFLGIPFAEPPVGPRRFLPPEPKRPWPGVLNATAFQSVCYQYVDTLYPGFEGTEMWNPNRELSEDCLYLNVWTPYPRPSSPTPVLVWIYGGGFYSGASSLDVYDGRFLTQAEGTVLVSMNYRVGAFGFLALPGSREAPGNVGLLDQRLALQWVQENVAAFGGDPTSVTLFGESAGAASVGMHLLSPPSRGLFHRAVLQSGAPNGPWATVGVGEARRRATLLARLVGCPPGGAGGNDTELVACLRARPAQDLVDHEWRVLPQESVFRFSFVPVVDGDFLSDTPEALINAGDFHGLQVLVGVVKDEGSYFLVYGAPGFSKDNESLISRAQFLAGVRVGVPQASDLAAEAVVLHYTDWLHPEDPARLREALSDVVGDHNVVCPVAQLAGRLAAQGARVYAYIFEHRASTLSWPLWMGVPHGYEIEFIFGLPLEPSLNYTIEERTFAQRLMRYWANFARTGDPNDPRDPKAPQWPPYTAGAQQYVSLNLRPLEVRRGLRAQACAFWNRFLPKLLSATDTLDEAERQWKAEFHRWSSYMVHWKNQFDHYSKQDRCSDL

[2] = molecular target: T1, Acetylcholinesterase; remark: listed apart in the source

CNC(=O)Oc1ccc2c(c1)[C@]1(C)CCN(C)[C@@H]1N2C [PHYSOSTIGMINE]
pIC50 [1]: 6.84
pIC50 [2]: 6.91

pIC50: −log10 of the molar value.
